Assay results as given in US12441767B2 (priority 2020, dated 2025).
Where two headings read alike, the source gives them in different places. Ends that are not written are not given here.

Tested on: p-Smad2
Format: cell-based, human

Gonearrestide (WCYKLPDRVSIKEKGRCN-NH2; cysteine pairing not given here) [P13]
p-Smad2 expression (E6 with 0.2 μmol AZD4547 + peptide (with or without FGF2) vs control E6 and E6 with 0.2 μmol AZD4547): up-regulated
p-Smad2 expression (E6 with 1.0 μmol PD173074 + peptide (with or without FGF2) vs control E6 and E6 with 1.0 μmol PD173074): up-regulated
